By UniProt entry, the sequences of proteins in these tests, tags left out. Where a name states a change or a piece, a line headed by the entry shows the natural chain unless it says otherwise.
UniProt P10275: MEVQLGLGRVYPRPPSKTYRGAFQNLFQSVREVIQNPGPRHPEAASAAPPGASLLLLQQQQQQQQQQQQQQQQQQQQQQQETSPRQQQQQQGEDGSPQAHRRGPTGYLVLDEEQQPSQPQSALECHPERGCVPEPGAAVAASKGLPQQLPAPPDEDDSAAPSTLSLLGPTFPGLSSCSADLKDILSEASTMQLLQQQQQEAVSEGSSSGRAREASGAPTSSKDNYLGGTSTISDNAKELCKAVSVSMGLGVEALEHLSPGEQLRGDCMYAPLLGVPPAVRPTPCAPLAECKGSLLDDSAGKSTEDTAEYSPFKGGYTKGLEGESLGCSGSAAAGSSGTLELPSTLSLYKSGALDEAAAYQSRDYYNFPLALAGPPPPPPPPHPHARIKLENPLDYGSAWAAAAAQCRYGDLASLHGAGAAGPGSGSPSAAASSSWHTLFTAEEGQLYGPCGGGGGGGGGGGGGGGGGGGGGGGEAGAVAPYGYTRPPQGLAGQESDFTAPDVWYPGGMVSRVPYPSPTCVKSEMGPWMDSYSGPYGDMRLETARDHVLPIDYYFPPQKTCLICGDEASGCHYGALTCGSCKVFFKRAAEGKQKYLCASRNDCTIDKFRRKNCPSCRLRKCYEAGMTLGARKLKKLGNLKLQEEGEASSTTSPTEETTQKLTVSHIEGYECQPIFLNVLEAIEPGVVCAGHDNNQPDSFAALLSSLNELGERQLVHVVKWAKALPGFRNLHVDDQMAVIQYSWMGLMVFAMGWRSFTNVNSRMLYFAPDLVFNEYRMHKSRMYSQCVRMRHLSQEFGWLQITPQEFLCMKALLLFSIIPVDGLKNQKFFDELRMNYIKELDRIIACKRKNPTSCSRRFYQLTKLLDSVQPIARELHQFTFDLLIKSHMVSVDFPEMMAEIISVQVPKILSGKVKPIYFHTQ
UniProt Q96SW2: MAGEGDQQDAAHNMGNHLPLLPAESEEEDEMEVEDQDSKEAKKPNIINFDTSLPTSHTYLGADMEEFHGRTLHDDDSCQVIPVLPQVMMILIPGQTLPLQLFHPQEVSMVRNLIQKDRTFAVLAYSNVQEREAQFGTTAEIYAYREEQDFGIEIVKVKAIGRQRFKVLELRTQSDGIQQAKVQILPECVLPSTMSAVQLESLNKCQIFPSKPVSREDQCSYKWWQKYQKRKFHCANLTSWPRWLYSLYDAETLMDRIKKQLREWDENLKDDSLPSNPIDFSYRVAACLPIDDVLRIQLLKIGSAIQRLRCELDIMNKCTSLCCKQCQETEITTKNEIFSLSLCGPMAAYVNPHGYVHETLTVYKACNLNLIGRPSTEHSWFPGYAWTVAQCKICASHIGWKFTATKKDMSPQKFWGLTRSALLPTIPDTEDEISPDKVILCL

According to ChEMBL document CHEMBL4842367, “Strategies toward Discovery of Potent and Orally Bioavailable Proteolysis Targeting Chimera Degraders of Androgen Receptor for the Treatment of Prostate Cancer” (J Med Chem, 2021):

Assays:
[1] = system: Protein cereblon/Androgen receptor (Homo sapiens), P10275+Q96SW2 [T878A]; settings: LNCaP, time 24.0 hrs
[2] = target: T1, Protein cereblon/Androgen receptor (Homo sapiens, UniProt P10275+Q96SW2); settings: VCaP, time 24.0 hrs
[3] = target: T1, Protein cereblon/Androgen receptor; test: Protac activity at CRBN/AR in human VCaP cells assessed as induction of AR degradation at 0.1 uM measured after 24 hrs by western blot analysis relative to control; type: cell-based
[4] = target: T1, Protein cereblon/Androgen receptor; test: Protac activity at CRBN/AR in human VCaP cells assessed as induction of AR degradation at 0.01 uM measured after 24 hrs by western blot analysis relative to control; type: cell-based
In short: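 VCaP cells treated 24 h at 1, 10, 100 and 1000 nM; lysed in RIPA with protease/phosphatase inhibitors, run on 4–12% SDS-PAGE, blotted to PVDF. AR bands background-subtracted and normalized to loading control; degradation relative to DMSO, average of three independent experiments.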

[5] = target: T1, Protein cereblon/Androgen receptor; test: Protac activity at CRBN/AR in human VCaP cells assessed as induction of AR degradation at 0.001 uM measured after 24 hrs by western blot analysis relative to control; type: cell-based
[6] = target: T1, Protein cereblon/Androgen receptor; test: Protac activity at CRBN/AR in human VCAP cells assessed as induction of AR degradation at 1 uM by western blot analysis relative to control; type: cell-based; settings: time 24.0 hrs

Structure (SMILES) | EC90 [1] [nM] | EC90 [2] [nM] | Activity [3] [%] | Activity [4] [%] | Activity [5] [%] | Activity [6] [%]
CC1(C)[C@H](NC(=O)c2ccc(N3CCN(C4CCN(c5ccc6c(c5)C(=O)N(C5CCC(=O)NC5=O)C6=O)CC4)CC3)cc2)C(C)(C)[C@H]1Oc1ccc(C#N)c(Cl)c1 (some centres undefined) | 52 | 2 |  |  |  | 
CC1(C)[C@H](NC(=O)c2ccc(N3CCN(CC4CCN(c5ccc6c(c5)C(=O)N(C5CCC(=O)NC5=O)C6=O)CC4)CC3)cc2)C(C)(C)[C@H]1Oc1ccc(C#N)c(Cl)c1 (some centres undefined) | 25 | 3 | 98 | 94 | 62 | 96
CC1(C)[C@H](NC(=O)c2ccc(N3CCN(CC4CN(c5ccc6c(c5)C(=O)N(C5CCC(=O)NC5=O)C6=O)C4)CC3)cc2)C(C)(C)[C@H]1Oc1ccc(C#N)c(Cl)c1 (some centres undefined) | 41 | 3 |  |  |  | 
CC1(C)[C@H](NC(=O)c2ccc(N3CCC(CN4CCN(c5ccc6c(c5)C(=O)N(C5CCC(=O)NC5=O)C6=O)CC4)CC3)cc2)C(C)(C)[C@H]1Oc1ccc(C#N)c(Cl)c1 (some centres undefined) | 10 | 2 |  |  |  | 
CC1(C)[C@H](NC(=O)c2ccc(N3CCC(N4CCN(c5ccc6c(c5)C(=O)N(C5CCC(=O)NC5=O)C6=O)CC4)CC3)cc2)C(C)(C)[C@H]1Oc1ccc(C#N)c(Cl)c1 (some centres undefined) | 10 | 2 |  |  |  | 
